{"sequences": {"note": "The chains behind the UniProt entries cited, without tags or fusion partners. Where a name states a change or a piece, a line headed by the entry shows the natural chain unless it says otherwise.", "UniProt P14780": "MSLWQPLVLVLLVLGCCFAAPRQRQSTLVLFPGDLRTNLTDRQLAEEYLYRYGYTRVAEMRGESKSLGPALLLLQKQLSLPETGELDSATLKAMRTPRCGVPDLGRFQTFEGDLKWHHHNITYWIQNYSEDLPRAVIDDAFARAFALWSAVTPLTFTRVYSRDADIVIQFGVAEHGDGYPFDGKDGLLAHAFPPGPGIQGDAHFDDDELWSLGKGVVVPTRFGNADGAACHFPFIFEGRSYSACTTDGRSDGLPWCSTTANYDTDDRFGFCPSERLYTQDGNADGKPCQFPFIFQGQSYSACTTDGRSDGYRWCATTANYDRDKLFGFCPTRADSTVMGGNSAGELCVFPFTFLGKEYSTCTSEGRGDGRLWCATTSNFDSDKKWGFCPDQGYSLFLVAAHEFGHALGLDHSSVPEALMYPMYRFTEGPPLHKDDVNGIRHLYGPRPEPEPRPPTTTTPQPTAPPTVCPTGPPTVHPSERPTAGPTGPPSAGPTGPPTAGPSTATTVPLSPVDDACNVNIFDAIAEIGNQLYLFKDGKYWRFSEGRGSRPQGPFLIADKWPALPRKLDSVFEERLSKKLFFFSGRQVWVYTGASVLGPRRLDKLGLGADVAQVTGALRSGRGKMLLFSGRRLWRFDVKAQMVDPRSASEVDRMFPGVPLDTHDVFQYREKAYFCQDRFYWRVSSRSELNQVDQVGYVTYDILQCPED"}, "source": "BindingDB's records for doi:10.1124/jpet.103.059675", "about": "(Wyeth Research, 2004)", "key": {"Collagenase 3": {"biological_target": "Collagenase 3 (Homo sapiens, UniProt P45452)", "experiment": "MMP Inhibition Assay", "settings": "pH 7.4; 22 °C", "experimental": "(§1) A continuous assay was used in which the substrate is a synthetic peptide containing a fluorescent group (7-methoxycoumarin), which is quenched by energy transfer to a 2,4-dinitrophenyl group. When the peptide was cleaved by MMPs, an increase in fluorescence was observed. The enzymatic reactions were initiated by adding the substrate, and the initial rate of the cleavage reaction was determined immediately after substrate addition. For most MMP assays in this study, the IC50 value is approximately 2-fold of the Ki value."}, "[1]": {"biological_target": "Matrix metalloproteinase-9 (Homo sapiens, UniProt P14780)", "experiment": "MMP Inhibition Assay", "settings": "pH 7.4; 22 °C", "experimental": "as §1"}}}
{"compound": "CC#CCOc1ccc(S(=O)(=O)N2CCSC(C)(C)[C@@H]2C(=O)NO)cc1", "note": "[(3S)-4-{[4-(but-2-yn-1-yloxy)benzene]sulfonyl}-N-hydroxy-2,2-dimethylthiomorpholine-3-carboxamide]", "values": [{"measurement": "IC50", "setting": "Collagenase 3", "result": 3, "unit": "nM"}, {"measurement": "IC50", "setting": "[1]", "result": 12, "unit": "nM"}]}
